# Test results: patent US6693108B2, “Inhibitors of c-JUN N terminal kinases (JNK) and other protein kinases” (Vertex Pharmaceuticals Incorporated, priority 1999, dated 2004)
# The chains behind the UniProt entries cited, without tags or fusion partners. Residues count along the entry.
# UniProt P53779, 40-402 limits assumed: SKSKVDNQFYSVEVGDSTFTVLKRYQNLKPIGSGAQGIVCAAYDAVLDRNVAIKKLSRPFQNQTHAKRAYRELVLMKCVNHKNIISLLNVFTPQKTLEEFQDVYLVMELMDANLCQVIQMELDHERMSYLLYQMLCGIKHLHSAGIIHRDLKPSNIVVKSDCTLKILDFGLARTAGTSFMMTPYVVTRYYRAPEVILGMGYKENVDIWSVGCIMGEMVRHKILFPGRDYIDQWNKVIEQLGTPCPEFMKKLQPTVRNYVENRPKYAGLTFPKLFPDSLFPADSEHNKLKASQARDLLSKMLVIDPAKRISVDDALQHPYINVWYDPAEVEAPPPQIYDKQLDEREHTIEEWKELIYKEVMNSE
# Biological target: activated JNK3 (Homo sapiens, UniProt P53779)
# Assay: JNK3 inhibition, spectrophotometric coupled-enzyme assay
# Format: biochemical
# Conditions: read-out: Activity in the JNK3 Inhibition Assay (Ki rating); activated JNK3 10 nM, 10 μM ATP, 30° C.; Ki from competitive inhibition model
row,SMILES,Ki
1,COc1ccc(Nc2nccc(-c3c(-c4ccccc4)noc3C)n2)cc1OC,< 0.1 µM
2,Cc1onc(-c2cccc(OCc3ccccc3)c2)c1-c1ccnc(Nc2cccc(C#N)c2)n1,0.1 to 1 µM
3,CSc1ccccc1Nc1nccc(-c2c(-c3ccccc3)noc2C)n1,0.1 to 1 µM
4,Cc1onc(-c2ccc3c(c2)OCO3)c1-c1ccnc(Nc2cccc(C#N)c2)n1,0.1 to 1 µM
5,CC(=O)Nc1cccc(Nc2cc(-c3c(-c4ccccc4)noc3C)ccn2)c1,< 0.1 µM
6,COc1ccc(OC)c(Nc2nccc(-c3c(-c4ccccc4)noc3C)n2)c1,0.1 to 1 µM
7,Cc1onc(-c2ccccc2)c1-c1ccnc(Nc2cc(C#N)ccc2F)n1,< 0.1 µM
8,Cc1onc(-c2ccccc2)c1-c1ccnc(Nc2ccc(C#N)cc2)c1,< 0.1 µM
9,Cc1onc(-c2ccccc2)c1-c1ccnc(NCCN2CCCC2)n1,> 1 µM
10,Cc1onc(-c2ccccc2)c1-c1ccnc(Nc2cccc(F)c2)n1,< 0.1 µM
11,Cc1onc(-c2c(F)cccc2F)c1-c1ccnc(Nc2ccc(F)c(C#N)c2)n1,< 0.1 µM
12,Cc1cccc(Nc2nccc(-c3c(-c4ccccc4)noc3C)n2)c1,< 0.1 µM
13,Cc1onc(-c2cccc(C#N)c2)c1-c1ccnc(Nc2ccc(C#N)cc2)n1,0.1 to 1 µM
14,Cc1onc(-c2ccccc2)c1-c1ccnc(Nc2ccccc2C(F)(F)F)n1,0.1 to 1 µM
15,Cc1onc(-c2cccc([N+](=O)[O-])c2)c1-c1ccnc(Nc2cccc(C#N)c2)n1,0.1 to 1 µM
16,Cc1ccccc1-c1noc(C)c1-c1ccnc(Nc2cccc(F)c2)n1,0.1 to 1 µM
17,Cc1onc(-c2ccccc2)c1-c1ccnc(Nc2cccc(Cl)c2C)n1,< 0.1 µM
18,Cc1onc(-c2ccc3c(c2)OCO3)c1-c1ccnc(Nc2ccc(C#N)c(F)c2)n1,0.1 to 1 µM
19,Cc1onc(-c2ccccc2C(F)(F)F)c1-c1ccnc(Nc2cccc(C#N)c2)n1,> 1 µM

row,SMILES,Ki
1,Cc1onc(-c2ccccc2)c1-c1ccnc(Nc2cccc(N)c2)c1,< 0.1 µM
2,CCN1CCCC1CNc1nccc(-c2c(-c3ccccc3)noc2C)n1 (centres unmarked),> 1 µM
3,Cc1onc(-c2ccccc2)c1-c1ccnc(NCCN(C)C)n1,> 1 µM
4,COc1cccc(Nc2cc(-c3c(-c4ccccc4)noc3C)ccn2)c1,< 0.1 µM
5,Cc1onc(-c2ccccc2)c1-c1ccnc(Nc2cccc([N+](=O)[O-])c2)c1,< 0.1 µM
6,Cc1onc(-c2ccccc2)c1-c1ccnc(NCCN2CCOCC2)c1,0.1 to 1 µM
7,Cc1cc(C)cc(Nc2nccc(-c3c(-c4ccccc4)noc3C)n2)c1,< 0.1 µM
8,COc1ccc(C#N)cc1Nc1nccc(-c2c(-c3ccccc3)noc2C)n1,< 0.1 µM
9,Cc1onc(-c2cccc([N+](=O)[O-])c2)c1-c1ccnc(Nc2ccc(C#N)c(F)c2)n1,0.1 to 1 µM
10,Cc1onc(-c2cccc(C#N)c2)c1-c1ccnc(Nc2ccc(C#N)c(F)c2)n1,0.1 to 1 µM
11,Cc1onc(-c2ccccc2)c1-c1ccnc(Nc2ccc(C#N)cc2)n1,< 0.1 µM
12,Cc1onc(-c2ccccc2)c1-c1ccnc(Nc2ccc(C#N)c(F)c2)n1,< 0.1 µM
13,Cc1onc(-c2ccccc2)c1-c1ccnc(Nc2ccccc2[N+](=O)[O-])n1,< 0.1 µM
14,CCOC(=O)CC(C)Nc1nccc(-c2c(-c3ccccc3)noc2C)n1 (centres unmarked),< 0.1 µM
15,Cc1onc(-c2ccccc2)c1-c1ccnc(NC(C)CO)n1 (centres unmarked),< 0.1 µM
16,COC(=O)c1cccc(Nc2cc(-c3c(-c4ccccc4)noc3C)ccn2)c1,< 0.1 µM
17,COCC(C)Nc1nccc(-c2c(-c3ccccc3)noc2C)n1 (centres unmarked),< 0.1 µM
18,CC(=O)c1ccc(Nc2nccc(-c3c(-c4c(F)cccc4F)noc3C)n2)cc1,< 0.1 µM
19,Cc1ccccc1-c1noc(C)c1-c1ccnc(Nc2ccc(C#N)cc2)n1,> 1 µM
